The list shows a part of the results, in another mix than the full data. The source made the active and inactive calls.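 The calls were made as follows: active = inhibition of at least 40%; inactive = inhibition below 40%.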

Protein sequences, listed by entry. Tags and fused reporters are not part of them.
UniProt P03951, whole entry, looked up: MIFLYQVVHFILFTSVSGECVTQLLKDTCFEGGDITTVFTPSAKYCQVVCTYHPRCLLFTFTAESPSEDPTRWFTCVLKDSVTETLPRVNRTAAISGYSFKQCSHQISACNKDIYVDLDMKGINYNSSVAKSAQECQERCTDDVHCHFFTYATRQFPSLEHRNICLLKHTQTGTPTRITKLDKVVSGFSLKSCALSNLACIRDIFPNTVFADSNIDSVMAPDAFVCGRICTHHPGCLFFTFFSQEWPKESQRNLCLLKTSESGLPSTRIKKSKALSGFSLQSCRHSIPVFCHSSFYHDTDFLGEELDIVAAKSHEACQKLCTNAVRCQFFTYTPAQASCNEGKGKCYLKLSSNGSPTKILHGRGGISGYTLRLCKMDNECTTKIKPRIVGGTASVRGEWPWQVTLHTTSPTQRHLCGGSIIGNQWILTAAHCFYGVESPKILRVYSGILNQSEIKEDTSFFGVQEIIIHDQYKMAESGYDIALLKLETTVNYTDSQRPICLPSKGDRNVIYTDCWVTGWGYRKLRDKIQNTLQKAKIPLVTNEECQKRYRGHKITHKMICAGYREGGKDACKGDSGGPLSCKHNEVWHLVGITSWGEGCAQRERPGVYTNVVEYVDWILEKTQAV

This assay addresses Coagulation factor XI (Homo sapiens) (UniProt P03951). Briefly: human FXIa protease inhibitors, primary screen, biochemical, 1536-well (AID 798).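 Also: fluorescence of freed AMC excited at 355 nm; 0% = enzyme without compound and 100% = no enzyme blank.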 The conditions noted are these: purified FXIa, Boc-Glu-Ala-Arg-AMC fluorogenic substrate; at 5 µM; hits give high values.
Broadly, the inhibition is the change of the read-out against control, counted positive when it falls. As for `Cc1cc(SC(NC(=O)c2ccccc2)C(Cl)(Cl)Cl)nc(C(C)C)n1` (centres undefined), the inhibition is inactive: 10.1%. As to `CCOC(=O)Nc1cccc([As](=O)(O)O)c1`, the inhibition was inactive: -1.61%.

As to `O=[N+]([O-])c1ccc(Nc2ccc(Oc3ccc([N+](=O)[O-])cc3[N+](=O)[O-])cc2)c([N+](=O)[O-])c1`, the inhibition was inactive: 6.85%. Consider `Cc1cc(SC(NC=O)C(Cl)(Cl)Cl)ncn1` (centres undefined), for which the inhibition was inactive: 2.66%. As for `O=P(Nc1ccccn1)(c1cccc2ccccc12)c1cccc2ccccc12`, the figure is inactive: -5.83%; as for `COP1(=S)c2c(C)nn(CCC#N)c2N=C(c2ccc(F)cc2)N1C` (centres undefined), inactive: -0.89%; as for `O=C(COc1ccccc1)OC1CN2CCC1CC2` (centres undefined), inactive: -1.29%. As to `CCOC(=O)c1ccc(NC(=O)C(C)(CCl)SC)cc1` (centres undefined), the inhibition was inactive: 1.21%. To `CCC(C)N(CC(C)C)C(=S)SC(NC(C)=O)C(Cl)(Cl)Cl` (centres undefined) belongs inactive: 12.6%. With `O=C(OC1CN2CCC1CC2)C12CC3CC(CC(C3)C1)C2` (centres undefined), the inhibition was inactive: -8.42%. As for `Cc1cc(=O)[nH]c(N[N+](=O)[O-])n1`, the figure is inactive: -9.86%.

As to `Cc1c2c(nc3ccccc13)SC(C(Cl)Cl)C2` (centres undefined), the inhibition is inactive: 6.17%.

For the compound `COc1ccc2nc(NP(=O)(c3ccccc3)c3ccccc3)sc2c1`, the inhibition was inactive: 1.15%. As for `COc1cc(I)ccc1[As](=O)(O)O`, the figure is inactive: -5.68%; as for `COc1ccc(N/C(=N/P(=O)(N2CCOCC2)N2CCOCC2)N2CCOCC2)cc1`, inactive: 3.19%; as for `O=[As](O)(c1ccc(O)cc1)c1ccccc1O`, inactive: -5.5%. As for `C[As](=O)(O)c1cccc(C(=O)O)c1`, the figure is inactive: 4.65%; as for `Cc1ccc2nc3c(c(C)c2c1)CC(C(Cl)Cl)S3` (centres undefined), inactive: 1.71%.

As for `Cc1ccc(OP(=O)(Nc2ccc([N+](=O)[O-])cn2)Oc2ccc(C)cc2)cc1`, the inhibition was inactive: -22.1%. To `CC(C)c1ccc(OP(=O)(Nc2ccccn2)Oc2ccccc2F)cc1` (centres undefined) belongs inactive: -0.15%. As for `ClCCSc1nnc(-c2cccnc2)o1`, the figure is inactive: 7.94%; as for `CC(C)NC(=O)NP(=O)(Oc1ccccc1)Oc1ccccc1`, inactive: -2.23%; as for `CCN(CC)C(=S)SC(NC=O)C(Cl)(Cl)Cl` (centres undefined), inactive: -1.49%. As for `O=[N+]([O-])c1cc([N+](=O)[O-])c(-c2ccn[nH]2)s1`, the figure is inactive: 4.22%.
